# Values of other authors in patent US20190338294A1, “ORTHOGONAL TRANSCRIPTIONAL SWITCHES DERIVED FROM TET REPRESSOR HOMOLOGS FOR SACCHAROMYCES CEREVISIAE” (The Johns Hopkins University, priority 2016, published 2019).
# System: yeast
# Details: Ikushima et al., 2015; cited from earlier work
substance,measurement,value
D-camphor,impact on yeast growth,little impact on yeast growth
